Assay results published in patent US20230041197A1, “TREATMENT OF A DISEASE OF THE GASTROINTESTINAL TRACT WITH AN IMMUNOMODULATOR” (Progenity, Inc., priority 2018, published 2023).
Counter-ions that a name gives are not always drawn.

Settings: mouse, in vivo

blood exposure: limited
Structure (SMILES): C[C@@H]1CCN(C(=O)CC#N)C[C@@H]1N(C)c1ncnc2[nH]ccc12 [tofacitinib citrate]
